Test system: Calcium-activated potassium channel subunit alpha-1 (Homo sapiens), Q12791 [UNDEFINED MUTATION]
Assay: Activation of hyperactive human BKca channel G803D/N806K mutant transfected in human AD-293 cells assessed as fold change in maximum relative fluorescence value at 5 uM preincubated for 15 mins followed by Tl+ stimulus buffer addition and measured after 80 sec by Flexstation3 multimode microplate reader analysis
Format: cell-based
Conditions: filed as opener, time 980.0 sec

Chains of the proteins cited; added tags and fusions are not shown.
Calcium-activated potassium channel subunit alpha-1 (Homo sapiens), Q12791, UniProt Q12791, whole entry, looked up, stated change not applied: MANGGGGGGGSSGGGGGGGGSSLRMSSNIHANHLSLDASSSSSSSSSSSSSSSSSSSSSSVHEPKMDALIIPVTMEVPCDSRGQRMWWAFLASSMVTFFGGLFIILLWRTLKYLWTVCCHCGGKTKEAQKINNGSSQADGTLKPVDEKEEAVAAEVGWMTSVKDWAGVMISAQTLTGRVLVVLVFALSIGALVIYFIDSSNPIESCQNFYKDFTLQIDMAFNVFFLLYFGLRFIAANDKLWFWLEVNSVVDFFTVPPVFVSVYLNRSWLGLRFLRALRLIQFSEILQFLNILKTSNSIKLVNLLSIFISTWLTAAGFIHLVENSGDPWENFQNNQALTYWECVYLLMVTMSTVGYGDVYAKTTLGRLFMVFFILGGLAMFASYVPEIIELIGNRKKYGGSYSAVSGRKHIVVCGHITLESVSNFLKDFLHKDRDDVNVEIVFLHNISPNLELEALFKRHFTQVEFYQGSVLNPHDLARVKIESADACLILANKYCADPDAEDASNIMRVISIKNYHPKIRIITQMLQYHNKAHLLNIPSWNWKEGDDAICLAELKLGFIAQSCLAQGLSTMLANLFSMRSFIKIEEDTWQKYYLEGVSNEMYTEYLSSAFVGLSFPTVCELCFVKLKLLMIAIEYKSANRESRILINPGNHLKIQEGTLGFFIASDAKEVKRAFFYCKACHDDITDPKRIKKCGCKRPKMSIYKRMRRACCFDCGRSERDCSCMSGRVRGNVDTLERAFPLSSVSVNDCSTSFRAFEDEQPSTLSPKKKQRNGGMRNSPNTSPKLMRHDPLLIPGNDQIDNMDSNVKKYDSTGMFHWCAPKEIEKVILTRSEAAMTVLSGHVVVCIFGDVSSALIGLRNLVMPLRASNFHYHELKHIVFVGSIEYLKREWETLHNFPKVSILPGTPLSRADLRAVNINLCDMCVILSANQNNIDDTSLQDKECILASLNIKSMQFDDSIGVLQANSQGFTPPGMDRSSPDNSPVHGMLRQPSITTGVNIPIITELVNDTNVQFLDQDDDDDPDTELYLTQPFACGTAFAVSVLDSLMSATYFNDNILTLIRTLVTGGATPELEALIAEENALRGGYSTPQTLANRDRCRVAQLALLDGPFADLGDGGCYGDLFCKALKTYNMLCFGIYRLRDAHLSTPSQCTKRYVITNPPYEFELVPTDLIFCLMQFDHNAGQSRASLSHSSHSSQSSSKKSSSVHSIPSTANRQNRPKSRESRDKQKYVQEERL

fold change (FC)	Structure (SMILES)
3.8	O=C(O)c1ccc(Cl)c2c1[nH]c1c3ccc(C(F)(F)F)cc3oc12
9.3	Nc1ccc(Oc2c(F)c(F)c(C(F)(F)F)c(F)c2F)c(O)c1

From ChEMBL document CHEMBL6153133, “Discovery of Diphenyl Ether Derivatives as Novel BKCa Channel Activators: Structure-Activity Relationship, Cryo-EM Complex Structures, and In Vivo Animal Studies” (J Med Chem, 2025)
